Reference: PubChem BioAssay AID1424 (The Scripps Research Institute Molecular Screening Center, 2008)
This is a selection; strong and weak results do not stand in their true shares. Some of these compounds have results that are not shown, active ones among them. Activity calls are given as the source filed them.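 The calls were made as follows: active = activation above its plate's cutoff, the mean activation of test wells on that plate plus 3 SD (cut at about 19% in these data); inactive = the rest.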

Each molecule was assayed on transient receptor potential cation channel N1 (TRPN1/NompC), Danio rerio (assay: zebrafish TRPN1 channel agonists, primary screen, cell-based, HEK293, calcium fluorescence (AID 1424;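 also: 0% = DMSO alone and 100% = 87 µM carbachol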)). Settings: HEK293 zebrafish TRPN1-YFP, Fluo-8 calcium fluorescence; at 3 µM; stronger effect = higher value; 100% = response to 87 µM carbachol.
In short: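 Material: zebrafish TRPN1-YFP in HEK293 cells; Doses: single test compound dose, 3 µM nominal, 0.3% DMSO; Timing: dye loading 1 h at 37 °C, then 30 min room temperature; Technique: intracellular calcium fluorescence with Fluo-8; Benchmarks: high carbachol 87 µM, low DMSO alone.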

Structure (SMILES)	activation
CCN1CCCC(OC(=O)C2(O)c3ccccc3C=Cc3ccccc32)C1 (stereo unspecified)	inactive: -0.31%
C=CCN1CCN(CCOC(=O)C(O)(c2ccccc2)c2ccccc2)CC1	inactive: 0.61%
CN(C)C1CCCC1OC(=O)C(O)(c1ccccc1)c1ccccc1 (stereo unspecified)	inactive: -0.58%
Cc1ccccc1C(=O)NCC1(N2CCCCC2)CCCCC1	inactive: -0.35%
CC(C)N1C(=O)CC2(CCN(CCOC(=O)C(O)(c3ccccc3)c3ccccc3)CC2)C1=O	inactive: 0.24%
CCN(CC)CC(C)C(C)OC(=O)C(O)(c1ccccc1)c1ccccc1 (stereo unspecified)	inactive: -0.28%
O=C(NCC1(N2CCCCC2)CCCCC1)c1cc([N+](=O)[O-])ccc1Cl	inactive: 0.93%
CN(C)c1cccc(C(=O)NCC2(N(C)C)CCCCC2)c1	inactive: 1.78%
COc1ccc(Br)c(C(=O)NCC2(N3CCCCC3)CCCCC2)c1	inactive: 1.24%
O=C(OC1CN2CCC1CC2)C(CO)(c1ccccc1)c1ccccc1 (stereo unspecified)	inactive: 3.11%
COc1cccc(C(=O)NCC2(N3CCCCC3)CCCCC2)c1	inactive: 0.71%
